Read-outs that look alike come from different tables or passages of the source.
Tested on: Mycobacterium tuberculosis (H37Rv)
Conditions: for Log10 cfu reduction (lungs): Acute (SCID)

| SMILES | Log10 cfu reduction (lungs) (1 mg/kg bw PO, 5% DMSO) [Log10 cfu] | Log10 cfu reduction (lungs) (10 mg/kg bw PO, 5% DMSO) [Log10 cfu] | activity in vivo in acute TB model (10 mg/kg and 50 mg/kg dose, oral) | Log10 cfu reduction (lungs) (10 mg/kg bw PO, sesame oil) [Log10 cfu] | Log10 cfu reduction (lungs) (50 mg/kg bw PO, sesame oil) [Log10 cfu] | Log10 cfu reduction (lungs) (100 mg/kg bw PO, sesame oil) [Log10 cfu] | Log10 cfu reduction (lungs) (200 mg/kg bw PO, sesame oil) [Log10 cfu] |
| --- | --- | --- | --- | --- | --- | --- | --- |
| CO[C@H]1/C=C/O[C@@]2(C)Oc3c(C)c(O)c4c(O)c(c(/C=N/N5CCN(C)CC5)c(O)c4c3C2=O)NC(=O)/C(C)=C\C=C\[C@H](C)[C@H](O)[C@@H](C)[C@@H](O)[C@@H](C)[C@H](OC(C)=O)[C@@H]1C [Rifampin] | −0.08 | −1.17 | – | – | – | – | – |
| CO[C@H]1C[C@H](O[C@@H]2/C(C)=C/C[C@@H]3C[C@@H](C[C@]4(CC[C@H](C)[C@@H](C5CCCCC5)O4)O3)OC(=O)[C@@H]3C=C(C)/C(=N/O)[C@H]4OC/C(=C\C=C\[C@@H]2C)[C@]43O)O[C@@H](C)[C@@H]1O [Selamectin] | – | – | showed activity | −0.42 | −0.62 | −0.23 | −0.23 |

Source: patent US9308215B2, “Avermectins and milbemycins as anti-mycobacterial agents” (priority 2013, dated 2016)
